Compound activity: PubChem, National Center for Advancing Translational Sciences (NCATS)
This is a sample that favours compounds with a hit; in the whole collection about 16% have one here.
DT40 TDP1 CPT: growth inhibition of DT40 Tdp1-/-;hTDP1 cells with camptothecin (screen for TDP1 inhibitors) | chicken DT40 Tdp1-/-;hTDP1 cells + 20 nM CPT, ATP luminescence, 48 h | actives 12% (n = 420,000) | Potency, µM (doses to about 46.2 µM), inactives show at the top dose activity change, negative = growth inhibition, most hits filed as inhibitors; also: potency is read from the fitted curve at half-maximal effect; % is scaled to controls: 0 for no effect and ±100 for the full control effect; nearly all actives have a fitted effect of over 55% in size
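Cell growth measured by CellTiter-Glo luminescence after a minimum 48 h, 37 C compound exposure with 20 nM CPT in Tdp1-knockout DT40 cells stably expressing hTDP1, seeded 400/well; qHTS titration format.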
TDP1 cell noCPT: qHTS for Inhibitors of human tyrosyl-DNA phosphodiesterase 1 (TDP1): qHTS in cells in absence of CPT; DT40 Tdp1-/- hTDP1 cells, no CPT, ATP luminescence, 48 h; Potency, µM (titrated, usually from 46.2 µM), for the others: top-dose activity change, negative = growth inhibition, usual class: inhibitors; actives 15% (n = 420,000); also: potency is read from the fitted curve at half-maximal effect; % is scaled to controls: 0 for no effect and ±100 for the full control effect; nearly all actives have a fitted effect of over 55% in size
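A cellular qHTS used chicken DT40 cells lacking endogenous Tdp1 but carrying stably transfected human TDP1. Compounds were applied without camptothecin, and cell growth kinetics were judged by ATP-dependent luminescence after ≥48 hr.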
miR-21 reporter: raises the signal of a miR-21 reporter; Potency, µM (doses to about 38.3 µM), inactives show top-dose reporter change, positive = more light; HeLa miR-21 FLuc reporter, luciferase, 48 h; AID 2288; 340,000 tested, under 10 active; active = well fitted rising curve with a large enough effect; inconclusive = small, poorly fitted or top-dose-only effect; inactive = no such curve, though single readings can be large or run the other way;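 further: % of control where 0% means no effect; miR-21 action dims this reporter so a rising signal means less miR-21 action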
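HeLa cells endogenously expressing miR-21, stably carrying CMV-driven firefly luciferase with a downstream miR-21 binding site, 2000 cells/well. Titrations up to approximately 40 uM, 48 hours; luciferase luminescence read.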
TDP1 block: blocks human tyrosyl-DNA phosphodiesterase 1. Q9NUW8. recombinant TDP1, AlphaScreen DNA substrate cleavage. Potency, µM (titrated, usually from 130 µM), without a hit: at the highest dose activity change, negative = inhibition, usual class: inhibitors. actives 0.28% (n = 350,000); also: potency is read from the fitted curve at half-maximal effect; % is scaled to controls: 0 for no effect and ±100 for the full control effect; nearly all actives have a fitted effect of over 40% in size
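Steps: enzyme plus compound, 15 min RT; add biotin/phosphotyrosine-FITC oligonucleotide (15 nM final), react 5 min; add donor/acceptor beads (10 ug/ml final), 10 min; read AlphaScreen. Tdp1 at 1 nM final.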
uPA generation: inhibitors of cell surface uPA generation | cell surface uPA generation assay, qHTS | Potency, µM (doses to about 38.3 µM), for inactives: at the highest dose activity change, negative = inhibition, usual class: inhibitors | actives 0.31% (n = 330,000) | AID 540303; active = well fitted inhibition curve with a large enough effect; inconclusive = small, poorly fitted or top-dose-only effect; inactive = no such curve, though single readings can be large or run the other way; tested in mouse RAW 264.7 cells; also: potency is read from the fitted curve at half-maximal effect; % is scaled to controls: 0 for no effect and ±100 for the full control effect; nearly all actives have a fitted effect of over 55% in size
* = called active by the depositor; ? = inconclusive; nt = no result given; [ ] = another dose, or the depositor's remark. Unless noted, calls follow the shape of the dose curve; as a rule, active = well fitted curve in the direction sought with a large enough effect; inconclusive = small, poorly fitted or top-dose-only effect, or another doubt; inactive = no such curve, though single readings can be large; an effect the other way counts as inactive or inconclusive.

The first 5 records as a preview:
Every second line gives: TDP1 block	uPA generation	DT40 TDP1 CPT	miR-21 reporter	TDP1 cell noCPT
1. O=C(OCC#Cc1c(COC(=O)c2ccccc2)nnn1Cc1ccccc1)c1ccccc1
  -1.2%	1.8%	18.4µM*	-1.1%	?
2. O=C(OCc1ccccc1)c1cccc(-c2nnn(Cc3ccccc3)n2)c1
  nt	5.3%	-11.5%	-40.3%	-2.3%
3. Cc1cc(C)cc(OCC(=O)OCC(=O)NCc2ccco2)c1
  7.0%	3.7%	-12.1%	-0.6%	-7.0%
4. CCC(OC(=O)CC1Sc2ccccc2NC1=O)C(=O)NCC1CCCO1 (configuration not stated)
  9.5%	2.4%	-6.1%	0.8%	-25.7%
5. O=C(CCCOc1ccc(Cl)cc1)NCCc1ccccc1
  nt	1.6%	-6.2%	-4.4%	-1.2%

Main list (from the top)
Every second line gives: TDP1 block	uPA generation	DT40 TDP1 CPT	miR-21 reporter	TDP1 cell noCPT
1. O=C(OCC#Cc1c(COC(=O)c2ccccc2)nnn1Cc1ccccc1)c1ccccc1
  -1.2%	1.8%	18.4µM*	-1.1%	?
2. O=C(OCc1ccccc1)c1cccc(-c2nnn(Cc3ccccc3)n2)c1
  nt	5.3%	-11.5%	-40.3%	-2.3%
3. Cc1cc(C)cc(OCC(=O)OCC(=O)NCc2ccco2)c1
  7.0%	3.7%	-12.1%	-0.6%	-7.0%
4. CCC(OC(=O)CC1Sc2ccccc2NC1=O)C(=O)NCC1CCCO1 (configuration not stated)
  9.5%	2.4%	-6.1%	0.8%	-25.7%
5. O=C(CCCOc1ccc(Cl)cc1)NCCc1ccccc1
  nt	1.6%	-6.2%	-4.4%	-1.2%
6. O=C(NCCCc1nc2ccccc2n1Cc1cccc(Cl)c1)c1ccco1
  9.8%	nt	16.4µM*	-0.8%	23.1µM*
7. O=C(NCCCc1nc2ccccc2n1Cc1ccc(Cl)cc1)c1ccco1
  7.4%	nt	?	28.2%	16.4µM*
8. O=C(NCCCc1nc2ccccc2n1Cc1ccccc1Cl)c1ccco1
  2.5%	nt	29.1µM*	6.4%	16.4µM*
9. COc1ccc(OC)c(-c2ccnc(-n3ncc(C(=O)N(C)CCO)c3C3CC3)n2)c1
  nt	nt	-0.7%	nt	-2.9%
10. COC(=O)[C@]1(Cc2ccccc2)N[C@H](CN(C)C(=O)Nc2ccccc2)[C@@H]2C(=O)N(Cc3ccccc3)C(=O)[C@@H]21
  -0.3%	30.7%	?	nt	?
11. COc1ccc(/C=C/C2=CC3(C)CC2(C)C(c2ccc(OC)cc2)CC3=O)cc1 (configuration not stated)
  9.0%[21 µM]	nt	nt	nt	nt
12. CC1Nc2ncnc(N3CCN(c4ccccc4)CC3)c2N(Cc2ccc(Cl)cc2)C1=O (configuration not stated)
  7.0%	-28.0%	?	nt	18.4µM*
13. CC1Nc2ncnc(N3CCN(c4ccccc4)CC3)c2N(Cc2ccccc2)C1=O (configuration not stated)
  0.2%	6.4%	?	nt	16.4µM*
14. O=C(NCc1cccs1)[C@@H]1CCCN1S(=O)(=O)c1ccccc1F
  nt	3.5%	5.2%	nt	-24.9%
15. C=CCN1C(=O)C(CC(=O)Nc2ccc(OCCC)cc2)N(CCCN2CCN(Cc3ccccc3)CC2)C1=S (configuration not stated)
  7.4%	-2.1%	23.1µM*	?	20.6µM*

Other results follow.
Every second line gives: TDP1 block	uPA generation	DT40 TDP1 CPT	miR-21 reporter	TDP1 cell noCPT
16. CCN1C(=O)C(CC(=O)Nc2ccc(OC)cc2)N(CCCN2CCN(c3ccc(F)cc3)CC2)C1=S (configuration not stated)
  7.4%	-19.3%	23.1µM*	26.2%	13µM*
17. COc1ccc(NC(=O)CC2C(=O)N(C)C(=S)N2CCc2ccc(F)cc2)cc1 (configuration not stated)
  3.7%	6.6%	?	?	?
18. COc1ccc(CCN2C(=S)N(C)C(=O)C2CC(=O)Nc2ccc(OC)cc2)cc1 (configuration not stated)
  0.0%	4.0%	11.6µM*	27.7%	?
19. CCN1C(=O)C(CC(=O)Nc2ccc(OC)cc2)N(CCc2ccc(F)cc2)C1=S (configuration not stated)
  5.8%	18.0%	20.6µM*	?	16.4µM*
20. COc1ccc(NC(=O)CC2C(=O)N(Cc3ccccc3)C(=S)N2CCN2CCOCC2)cc1 (configuration not stated)
  3.8%	8.5%	?	5.9%	?
21. O=C(CCC(=O)c1cccs1)NCc1cccc(C(F)(F)F)c1
  nt	2.2%	-6.9%	nt	3.3%
22. CC1CN(C(=O)CNC(=O)Cc2cccc3ccccc23)CC(C)O1 (configuration not stated)
  0.2%[56.1 µM]	5.9%	-16.9%	nt	25.5%
23. CN(C)c1cc(NC(=O)CNC(C)(C)CC(C)(C)C)c2ccccc2n1
  -14.9%	-2.5%	?	16.4%	16.4µM*
24. COc1cc(NC(=O)N2CCC(CN3CCc4ccccc4C3)CC2)cc(OC)c1
  -2.5%	nt	-28.5%	1.7%	-26.5%
25. Cc1nc2c(Br)cc(Br)cc2c(=O)n1-c1ccccc1NC1OCC(O)C(O)C1O (configuration not stated)
  nt	-7.0%	7.31µM*	nt	8.2µM*
26. COc1ccc(N=Nc2cc(OC)c(N)cc2OC)cc1
  nt	3.7%	-0.8%	nt	?
27. Cc1cc(N=Nc2ccc(C)c(N=Nc3cc(C)c(N)cc3N)c2)c(N)cc1N
  nt	?	?	-45.2%	11.6µM*
28. COc1ccccc1NC(=O)c1oc2ccccc2c1NC(=O)c1c(F)cccc1F
  -3.8%	nt	?	-3.8%	?
29. CCOc1ccc(NC(=O)c2oc3ccccc3c2NC(=O)c2ccc(OC)cc2OC)cc1
  3.8%	nt	23.1µM*	-6.7%	18.4µM*
30. COc1ccccc1C(=O)Nc1c(C(=O)c2ccccc2)oc2ccccc12
  -3.2%	nt	18.4µM*	-18.7%	?

Further records follow.
Every second line gives: TDP1 block	uPA generation	DT40 TDP1 CPT	miR-21 reporter	TDP1 cell noCPT
31. CCOC(=O)c1oc2ccccc2c1NC(=O)c1ccccc1OC
  -3.1%	nt	?	-7.7%	?
32. COc1cc(C(=O)Nc2c(C(=O)Nc3ccccc3F)oc3ccccc23)cc(OC)c1OC
  -1.3%	nt	5.17µM*	10.5%	4.11µM*
33. CCOc1ccc(NC(=O)c2oc3ccccc3c2NC(=O)COc2cccc(OC)c2)cc1
  9.0%	nt	-1.1%	-1.9%	-11.7%
34. COc1ccc(NC(=O)c2oc3ccccc3c2NC(=O)C23CC4CC(CC(C4)C2)C3)c(OC)c1
  6.4%	nt	-23.0%	-0.6%	23.1µM*
35. Cc1cc(C)cc(N=C2NC(=O)CS2)c1
  4.6%	1.5%	32.2%	-2.0%	5.8%
36. COc1ccc(C(=O)c2oc3ccccc3c2NC(C)=O)cc1
  -3.1%	-3.5%	?	-22.3%	?
37. COc1ccc(OC)c(C(=O)c2oc3ccccc3c2NC(C)=O)c1
  6.3%	-9.9%	23.1µM*	18.2%	16.4µM*
38. CC(C)(C)NC(=O)c1oc2ccccc2c1NC(=O)c1ccc(F)cc1
  2.1%	nt	?	-6.7%	?
39. COc1ccccc1C(=O)Nc1c(C(=O)NC(C)(C)C)oc2ccccc12
  -4.2%	nt	?	-0.2%	23.1µM*
40. COc1ccccc1NC(=O)c1oc2ccccc2c1NC(=O)c1cccc(OC)c1OC
  -3.8%	nt	5.8µM*	15.3%	5.8µM*
41. COc1ccccc1C(=O)Nc1c(C(=O)N(CCN(C)C)Cc2ccco2)oc2ccccc12
  8.6%	?	9.2µM*	?	11.6µM*
42. CC(=O)Nc1ccc(S(=O)(=O)NC2=NCN(c3cccc([N+](=O)[O-])c3)CN2)cc1
  3.3%	1.6%	?	-1.1%	-5.9%
43. CCCCCCCCCCCCCCCCCC(=O)O
  23.3%	nt	4.4%	nt	-6.3%
44. COc1ccccc1NC(=O)c1cc2ccccc2o/c1=N\O
  nt	0.1%	20.6µM*	-38.0%	20.6µM*
45. COc1ccccc1NC(=O)c1cc2ccc(O)cc2o/c1=N\O
  0.0%	-2.7%	?	-22.3%	?
46. C=CCc1cc(C=Nc2ccc(N3CCOCC3)cc2)cc(OCC)c1O
  nt	-7.0%	-27.8%	nt	16.4µM*
